Measured values: patent US20010016643A1, “Peptide derivatives” (priority 1995, published 2001)

Experiment: Determination of protraction in pigs: disappearance of labelled peptide from the subcutaneous injection site
Conditions: 125I-labelled peptide, external γ-counter

## Arg^4,Arg^9,Lys^15 (N^ε-tetradecanoyl) somatostatin [Example 4]
  T50% (time when 50% of the labelled peptide has disappeared from the site of injection): 1.7 ± 0.5 h
